Earlier results in US20040157796A1 (published 2004).

The chains behind the UniProt entries cited, without tags or fusion partners. Residues count along the entry.
UniProt P35354, 18-604: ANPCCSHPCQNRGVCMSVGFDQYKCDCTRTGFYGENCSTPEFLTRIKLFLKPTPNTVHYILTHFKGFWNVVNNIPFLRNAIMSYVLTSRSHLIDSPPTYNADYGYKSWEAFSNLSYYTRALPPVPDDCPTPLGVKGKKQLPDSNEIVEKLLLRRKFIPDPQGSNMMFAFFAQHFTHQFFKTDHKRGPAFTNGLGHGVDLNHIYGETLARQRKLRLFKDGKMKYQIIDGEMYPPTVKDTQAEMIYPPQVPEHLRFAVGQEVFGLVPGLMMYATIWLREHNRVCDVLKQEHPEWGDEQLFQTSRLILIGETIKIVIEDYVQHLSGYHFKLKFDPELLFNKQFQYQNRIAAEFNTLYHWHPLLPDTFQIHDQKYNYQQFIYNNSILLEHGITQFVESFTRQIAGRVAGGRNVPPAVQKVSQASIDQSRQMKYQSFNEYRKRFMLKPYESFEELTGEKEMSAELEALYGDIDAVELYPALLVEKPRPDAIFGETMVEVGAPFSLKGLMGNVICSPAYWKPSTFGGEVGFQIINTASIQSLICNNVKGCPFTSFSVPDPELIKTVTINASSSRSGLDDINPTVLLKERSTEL

Target: COX-2 (Homo sapiens, UniProt P35354)

## CCC(=O)NS(=O)(=O)c1ccc(-c2c(-c3ccccc3)noc2C)cc1 [Parecoxib, N-[[4-(5-methyl-3-phenylisoxazol-4-yl)phenyl]sulfonyl]propanamide]
  in vitro inhibitory activity against COX-2: weak in vitro inhibitory activity
